SMILES strings stand for the structures.

Data set [1] has as its system clinical isolate of C. albicans. The note with it: murine model of candidiasis, compared to the control group; cited from earlier work. From the text: Displaying multivarious biological activities, including antibacterial activity, anticancer activity, and antiparasitic activity, gomesin is of the greatest interest as an antifungal drug candidate. […] In addition, an in vivo study of gomesin on a murine model of candidiasi ...

The next data set concerns C. albicans ATCC 18804. As to the kind of experiment: Flow cytometry, propidium iodide uptake. The note with it: 1× MIC (0.39 μM), 2 h at 30 °C, 0.5× Sabouraud broth, 2 × 10^4 CFU/mL. The data set is classed as cell-based, Candida albicans. The protocol:
Flow cytometry analysis was performed using a Novocyte 2060R flow cytometer (ACEA Biosciences Inc., San Diego, CA, USA), as described previously. C. albicans ATCC 18804 at a final concentration of 2 × 10^4 CFU/mL in 0.5× Sabouraud broth was used for analysis. […] Treated cells and untreated controls were precipitated by centrifugation at 1600× g for 10 min, resuspended in 0.3 mL of PBS, and stained for 20 min at room temperature in the dark with propidium iodide (Biotium, Fremont, CA, USA) at a concentration of 4 μg/mL. The cells after thermal treatment at 99 °C for 10 min were used as a control of dead cells. The obtained data were processed using NovoExpress Software v. 1.2.4 (ACEA Biosciences Inc., San Diego, CA, USA).
For orientation: In flow cytometry, cells or beads pass a laser one at a time.

In data set [2] the test system is normal human cells (hemolytic activity). The note with it: at high concentrations of >100 µM; cited from earlier work. From the text: Natural gomesin is a small, positively charged β-hairpin peptide consisting of 18 amino acid residues, including a pyroglutamic acid at the N-terminus, the C-terminal amide group, and four cysteine residues forming two disulfide bridges.

With `CC(C)C[C@@H]1NC(=O)[C@H](CCCNC(=N)N)NC(=O)[C@H](CCCNC(=N)N)NC(=O)[C@@H](NC(=O)[C@@H]2CCC(=O)N2)CSSC[C@@H](C(=O)N[C@@H](CCCNC(=N)N)C(=O)NCC(=O)N[C@@H](CCCNC(=N)N)C(=O)O)NC(=O)[C@H](Cc2ccc(O)cc2)NC(=O)[C@H]([C@@H](C)O)NC(=O)[C@H](C(C)C)NC(=O)[C@@H]2CSSC[C@H](NC1=O)C(=O)N[C@@H](Cc1ccc(O)cc1)C(=O)N[C@@H](CCCCN)C(=O)N[C@@H](CCC(N)=O)C(=O)N[C@@H](CCCNC(=N)N)C(=O)N2` [Gomesin], the “fungal burden (in words)” value in data set [1] is “effectively reduced fungal burden”. Also, the “PI-stained cells (upper gate, FSC vs. PI plot)” value in the data set on C. albicans ATCC 18804 is 86.6%. The hemolytic activity entry in data set [2] was “about 40%”.

These data come from PMC11678162 (Pharmaceutics, 2024).
